Values quoted from earlier work as cited in patent US20130252831A1, “METHOD OF DIAGNOSING EARLY STAGE NON-SMALL CELL LUNG CANCER” (H. Lee Moffitt Cancer Center and Research Institute, Inc., priority 2010, published 2013).

Test system: EGFR-mutant NSCLC
Conditions: randomized phase III trial (Zhou et al.); cited from earlier work

## COc1cc2ncnc(Nc3ccc(F)c(Cl)c3)c2cc1OCCCN1CCOCC1 [gefitinib]
  efficacy compared with platinum-based chemotherapy: superior to platinum-based chemotherapy
